# Laboratory results taken from patent US20230219962A1, “PYRAZOLO[4,3-d]PYRIMIDINE DERIVATIVES AND METHODS OF USE THEREOF FOR THE TREATMENT OF CELLULAR PROLIFERATIVE DISORDERS” (Merck Sharp & Dohme LLC, priority 2020, published 2023).
# Sequences of proteins named here, by UniProt entry; tags and fusion partners are left off. Residues count along the entry.
# UniProt Q9NR97, 27-1041 limits assumed: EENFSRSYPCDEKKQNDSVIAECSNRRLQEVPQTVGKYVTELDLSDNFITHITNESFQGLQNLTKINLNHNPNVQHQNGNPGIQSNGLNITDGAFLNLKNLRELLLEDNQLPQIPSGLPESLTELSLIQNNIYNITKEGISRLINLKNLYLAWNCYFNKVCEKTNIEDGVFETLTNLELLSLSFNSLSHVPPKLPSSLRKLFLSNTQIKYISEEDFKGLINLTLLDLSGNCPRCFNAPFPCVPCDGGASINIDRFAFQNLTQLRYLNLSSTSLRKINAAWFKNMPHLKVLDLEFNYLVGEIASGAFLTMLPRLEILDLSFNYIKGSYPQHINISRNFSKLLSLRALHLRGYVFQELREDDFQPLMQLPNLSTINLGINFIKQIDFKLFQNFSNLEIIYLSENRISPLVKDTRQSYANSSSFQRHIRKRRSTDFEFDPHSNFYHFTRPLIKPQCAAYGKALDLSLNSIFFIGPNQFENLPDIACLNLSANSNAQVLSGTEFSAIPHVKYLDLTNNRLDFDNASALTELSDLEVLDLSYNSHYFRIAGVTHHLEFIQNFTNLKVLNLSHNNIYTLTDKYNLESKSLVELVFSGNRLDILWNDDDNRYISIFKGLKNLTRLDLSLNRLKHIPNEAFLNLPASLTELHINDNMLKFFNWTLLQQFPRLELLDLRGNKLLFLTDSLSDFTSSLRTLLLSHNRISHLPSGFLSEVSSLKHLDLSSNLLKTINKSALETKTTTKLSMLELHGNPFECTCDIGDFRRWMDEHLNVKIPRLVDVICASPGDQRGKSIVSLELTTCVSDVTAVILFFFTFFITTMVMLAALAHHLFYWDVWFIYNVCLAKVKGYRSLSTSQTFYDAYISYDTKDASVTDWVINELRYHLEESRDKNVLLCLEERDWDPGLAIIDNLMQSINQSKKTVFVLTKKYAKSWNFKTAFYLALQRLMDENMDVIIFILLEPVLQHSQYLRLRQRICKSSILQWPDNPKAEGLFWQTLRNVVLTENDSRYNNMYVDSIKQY
# UniProt Q9NYK1, 27-1049 limits assumed: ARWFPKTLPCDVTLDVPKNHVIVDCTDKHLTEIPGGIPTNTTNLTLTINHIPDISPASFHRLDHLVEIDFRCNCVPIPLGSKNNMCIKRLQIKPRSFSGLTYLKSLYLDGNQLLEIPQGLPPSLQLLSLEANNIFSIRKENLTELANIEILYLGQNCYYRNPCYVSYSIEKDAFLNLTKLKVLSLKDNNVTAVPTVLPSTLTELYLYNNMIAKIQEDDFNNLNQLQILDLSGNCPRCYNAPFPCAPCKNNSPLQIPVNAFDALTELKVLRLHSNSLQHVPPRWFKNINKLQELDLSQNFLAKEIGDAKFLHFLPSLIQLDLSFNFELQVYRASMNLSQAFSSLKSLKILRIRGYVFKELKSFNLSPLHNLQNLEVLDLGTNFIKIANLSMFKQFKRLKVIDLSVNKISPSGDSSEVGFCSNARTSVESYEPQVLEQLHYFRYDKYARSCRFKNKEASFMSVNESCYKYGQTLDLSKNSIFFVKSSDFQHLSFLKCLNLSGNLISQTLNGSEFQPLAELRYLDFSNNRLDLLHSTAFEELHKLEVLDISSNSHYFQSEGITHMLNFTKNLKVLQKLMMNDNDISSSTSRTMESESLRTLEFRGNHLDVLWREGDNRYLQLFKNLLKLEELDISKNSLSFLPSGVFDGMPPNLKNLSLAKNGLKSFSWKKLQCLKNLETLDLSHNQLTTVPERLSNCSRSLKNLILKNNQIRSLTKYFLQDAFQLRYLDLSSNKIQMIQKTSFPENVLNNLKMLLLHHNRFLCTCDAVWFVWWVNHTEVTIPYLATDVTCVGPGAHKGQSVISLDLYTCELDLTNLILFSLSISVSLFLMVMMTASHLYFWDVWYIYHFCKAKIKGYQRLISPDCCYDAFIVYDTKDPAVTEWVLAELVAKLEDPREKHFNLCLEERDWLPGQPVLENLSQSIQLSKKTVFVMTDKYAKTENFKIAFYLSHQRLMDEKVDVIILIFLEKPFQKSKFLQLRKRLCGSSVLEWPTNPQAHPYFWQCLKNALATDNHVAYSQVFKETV
# Read-outs that look alike come from different tables or passages of the source.
# Tests used:
# hTLR8 = hTLR8 (Homo sapiens, UniProt Q9NR97); test: Human TLR8 Reporter Assay; details: read-out: hTLR8 EC50, HEK-Blue hTLR8 cells, 16 hours, normalized to tl8-506 (1 μM) and DMSO
# Method: (§1) HEK-Blue™ hTLR8 cells (Invivogen, San Diego, Calif.) were maintained at 37° C./5% CO2/90% relative humidity in Dulbecco's Modified Eagle's Medium with 10% fetal bovine serum, 100 units/mL penicillin, 100 μg/mL streptomycin, 100 μg/mL normocin, 10 μg/mL blasticidin, and 100 μg/mL zeocin. HEK-Blue™ hTLR8 cells were maintained at 10-90% confluence and used before passage 20. For this assay, test compounds were dissolved in DMSO, and 10-point serial 3-fold dilution series in DMSO were prepared in Echo Qualified 384-well Polypropylene Microplates (Labcyte, San Jose, Calif.). Assay plates (384-well flat, clear bottom, black polystyrene TC-treated microtiter plates; Corning, Corning, N.Y.) were prepared by dispensing 150 nL of test compounds, high control (tl8-506; Invivogen, San Diego, Calif.), and low control (DMSO) by ECHO acoustic dispenser (Labcyte, San Jose Calif.) followed by addition of 5 μL of HEK-Blue™ Detection assay media (Invivogen, San Diego, Calif.). HEK-Blue™ hTLR8 cells in HEK-Blue™ Detection assay media (20,000 cells per well in 45 μL of media) were added to the assay plate and incubated for 16 hours at 37° C./5% CO2/90% relative humidity. For detection, assay plates were removed from the incubator, allowed to cool to ambient temperature, centrifuged at 200×g for 1 minutes, and read with an EnSpire Multimode Plate Reader (Perkin Elmer, Waltham, Mass.) for absorbance at 620 nm. Test compound effects were normalized to the window defined by the controls, tl8-506 (1 μM), and DMSO. Calculated % effects were fit using a 4-parameter algorithm, and EC50 was reported.
# hTLR7 = hTLR7 (Homo sapiens, UniProt Q9NYK1); test: Human TLR7 Reporter Assay; details: read-out: hTLR7 EC50, HEK-Blue hTLR7 cells, 16 hours, normalized to CL097 (6 μM) and DMSO
# Method: as §1, with “hTLR7” for “hTLR8”, “(CL097;” for “(tl8-506;”, “CL097 (6” for “tl8-506 (1”
SMILES,EC50 (hTLR8; tested form: TFA) [µM],EC50 (hTLR7; tested form: TFA) [nM],EC50 (hTLR8) [µM],EC50 (hTLR7) [nM],further results
CCCCNc1nc(N)nc2cn(Cc3cc(CN4CCNCC4)ccc3OC)nc12,3.08,1940,–,–,–
"CCCCNc1nc(N)nc2cn(Cc3c(OC)cc(CC(C)N)cc3OC)nc12 (single isomer, unassigned)",–,–,–,–,EC50 (hTLR8; tested form: trifluoroacetate): 0.311 µM; EC50 (hTLR7; tested form: trifluoroacetate): 531 nM
"CCCC(CCO)Nc1nc(N)nc2cn(Cc3ccccc3OC)nc12 (single isomer, unassigned) [Compound 14]",–,–,3.83,54.2,–
"CCCC(CCO)Nc1nc(N)nc2cn(Cc3ccccc3OC)nc12 (single isomer, unassigned) [Compound 15]",–,–,> 29.9,291,–
CCCCNc1nc(N)nc2cn(Cc3ccc(C(C)N)cc3OC)nc12 (stereo not shown) [Compound 167],0.231,223,–,–,–
